Values of other authors, collected in US10137085B2, “Nanoemulsion for transdermal delivery and method of making the same” (Nano and Advanced Materials Institute Limited, priority 2014, dated 2018).

Conditions: solid-in-oil nanodispersion compared to control

In the case of insulin, the skin penetration is listed as “could be enhanced”.
